Shown are actives, neighbours in structure and some others; about 2.3% of the full set was active somewhere.
miR-21 reporter – raises the signal of a miR-21 reporter; HeLa miR-21 FLuc reporter, luciferase, 48 h; Potency, µM (top dose mostly 38.3 µM), for inactives: at the highest dose reporter change, positive = more light; AID 2288; 340,000 tested, under 10 active; active = well fitted rising curve with a large enough effect; inconclusive = small, poorly fitted or top-dose-only effect; inactive = no such curve, though single readings can be large or run the other way;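 note: % of control where 0% means no effect; miR-21 action dims this reporter so a rising signal means less miR-21 action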
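Using DMEM plus 10% FBS, HeLa miR-21-FLuc cells are incubated with test compounds (final up to about 40uM) for 48 hours; firefly luciferase signal is then imaged following reagent-mediated lysis.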
Nrf2 inh – inhibitors of Nrf2 signaling; A549 ARE-Fluc reporter, luciferase luminescence, 18-24 h; Potency, µM (top dose mostly 46 µM), for the others: at the highest dose activity change, negative = inhibition, most hits filed as inhibitors; AID 504444; hit rate 2.1% among 360,000; also: potency is read from the fitted curve at half-maximal effect; % is scaled to controls: 0 for no effect and ±100 for the full control effect; nearly all actives have a fitted effect of over 60% in size
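A549 ARE_Fluc cells, 5000/well, 5% FBS OPTI-MEM; compounds in dose-response, 18-24 h at 37 °C/5% CO2; CellTiter-Fluor viability read (Ex 405/Em 525), then BugLite luciferase luminescence = Nrf2 activity.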
A549 tox – A549 cytotoxicity, counter-screen for Nrf2 inhibitors; A549 ARE-Fluc cells, CellTiter-Fluor viability, 18-24 h; hit rate 0.16% among 390,000; Potency, µM (series often up to 46 µM), for the others: top-dose activity change, negative = cytotoxicity, usual class: inhibitors; AID 504648; also: potency is read from the fitted curve at half-maximal effect; % is scaled to controls: 0 for no effect and ±100 for the full control effect
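A549 ARE_Fluc cells in 5% FBS OPTI-MEM were exposed to compounds in concentration-response for 18-24 h at 37 deg C. Viability was read by CellTiter-Fluor fluorescence (Ex 405/Em 525) after 30 min, before the luciferase read.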
Mito fusion act – blocks mitochondrial division or promotes mitochondrial fusion; S. cerevisiae fusion-defective mutant growth rescue, CellTiterGlo 48 h; Potency, µM (highest dose often 46.1 µM), without a hit: at the highest dose growth rescue (activation), hits mostly activators; hit rate 0.23% among 320,000; also: potency is read from the fitted curve at half-maximal effect; % of control where 0% means no effect; nearly all actives have a fitted effect of over 45% in size
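Temperature-sensitive fusion-defective S. cerevisiae (e.g. fzo1-1, mgm1-5) were grown with compound in YPEG medium (3% ethanol, 3% glycerol) for 48 hours at 37C. Growth rescue was measured as viability by CellTiterGlo luminescence after 10 minutes at ambient.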
Nrf2 activator – activators of Nrf2 (ARE) signaling. AREc32 ARE-luciferase reporter (MCF7-derived line), luminescence, 24 h. Potency, µM (titrated, usually from 46.1 µM), for the others: top-dose activation, actives largely listed as activators. hit rate 0.31% among 410,000; also: potency is read from the fitted curve at half-maximal effect; % of control where 0% means no effect; nearly all actives have a fitted effect of over 65% in size
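Luminescent ARE reporter assay in AREc32_Fluc cells: overnight plating at 37 deg C, 24 hr compound incubation, Steady-Glo added, 30 min RT before reading.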
Active calls of the source: *; ? = inconclusive; . = no result. Calls follow the shape of the dose curve; as a rule, active = well fitted curve in the direction sought with a large enough effect; inconclusive = small, poorly fitted or top-dose-only effect, or another doubt; inactive = no such curve, though single readings can be large; an effect the other way counts as inactive or inconclusive.

The first 3 entries (preview)
SMILES | miR-21 reporter | Nrf2 inh | A549 tox | Mito fusion act | Nrf2 activator
CC(=O)c1ccc(S(=O)(=O)N2CCN(C(=O)c3ccc(-n4nc(C)c(Cl)c4C)cc3)CC2)cc1 | . | 25.9µM* | -0.4% | 7.1% | 0.0%
COc1cc2cc(CNc3ccc(C)cc3)c(=O)n(CC(=O)Nc3ccc(C(C)C)cc3)c2cc1OC | -7.8% | 65.1% | -4.6% | . | 7.9%
O=c1cc(-c2ccccc2)nc(SCc2nc(-c3ccccc3Cl)no2)[nH]1 | -3.6% | . | 5.5% | . | -1.4%

Results, from the first entry:
SMILES | miR-21 reporter | Nrf2 inh | A549 tox | Mito fusion act | Nrf2 activator
CC(=O)c1ccc(S(=O)(=O)N2CCN(C(=O)c3ccc(-n4nc(C)c(Cl)c4C)cc3)CC2)cc1 | . | 25.9µM* | -0.4% | 7.1% | 0.0%
COc1cc2cc(CNc3ccc(C)cc3)c(=O)n(CC(=O)Nc3ccc(C(C)C)cc3)c2cc1OC | -7.8% | 65.1% | -4.6% | . | 7.9%
O=c1cc(-c2ccccc2)nc(SCc2nc(-c3ccccc3Cl)no2)[nH]1 | -3.6% | . | 5.5% | . | -1.4%
OC(c1ccc(OCc2ccccc2)cc1)c1nnc(-c2ccccc2)o1 (stereo not drawn) | -0.7% | 16.4µM* | -18.4% | 1.8% | -0.1%
CCc1ccc(C(=O)Cn2ncc(Cl)c(Cl)c2=O)cc1 | -5.2% | -14.4% | 3.3% | -6.1% | 10µM*
O=C(Cn1ncc(Cl)c(Cl)c1=O)N1CCN(Cc2ccccc2)CC1 | ? | ? | ? | -10.3% | ?
O=C(Cn1ncc(Cl)c(Cl)c1=O)N1CCOCC1 | ? | 86.7% | ? | -3.6% | 11.2µM*
Cc1nc2ccn(Cc3cccnc3)c(=O)c2cc1C(=O)NCc1ccccc1 | -13.4% | -27.8% | 6.1% | . | 4.5%
COC(=O)C1=C(C)NC(C)=C(C(=O)OCC(C)C)C1c1ccccc1[N+](=O)[O-] (stereo not drawn) | . | 16.4µM* | -9.7% | . | 2.7%
Cc1cccc(-c2nc3c(cnn3-c3ccccc3)c(=O)n2-c2ccc(Cl)cc2)c1 | -43.2% | -13.2% | 0.9% | . | 5.8%
CCn1nc(C)cc1C(=O)OCC(=O)c1ccc(Cl)cc1 | -2.3% | 18.4µM* | 1.5% | -6.5% | 0.1%
Cc1ccc(C)c(N2CCN(C(=O)CCS(=O)(=O)c3ccc4c(c3)NC(=O)CO4)CC2)c1 | ? | 8.2µM* | -10.2% | -6.9% | -1.2%
Cc1ccc(C)c(N2CCN(C(=O)CCS(=O)(=O)c3ccc4c(c3)CCN4C(=O)C3CC3)CC2)c1 | 1.7% | 25.9µM* | -4.1% | 11.2µM* | -0.4%
Cc1cccc2sc(N(Cc3cccnc3)C(=O)CCS(=O)(=O)c3ccccc3)nc12 | 18.7% | . | 4.3% | . | 22.4µM*
COc1ccc(OC)c(/C=C(\C#N)c2nc(-c3ccc(F)cc3)cs2)c1 | -9.1% | . | ? | . | ?
CC(=O)N1c2ccc(S(=O)(=O)NCC3CCC(C(=O)Nc4ccc(F)cc4)CC3)cc2CC1C (stereo not drawn) | 28.6% | . | -10.3% | . | 3.4%
COc1ccccc1NC(=O)C1CCN(S(=O)(=O)c2ccc3c(c2)CC(C)N3C(C)=O)CC1 (stereo not drawn) | 0.2% | ? | 9.2% | 6.1% | -0.7%
CC(=O)N1c2ccc(S(=O)(=O)NCC3CCC(C(=O)Nc4ccc(C)c(C)c4)CC3)cc2CC1C (stereo not drawn) | 14.4% | 20.6µM* | -11.9% | . | 4.7%
COc1ccccc1NC(=O)C1CCC(CNS(=O)(=O)c2ccc3c(c2)CC(C)N3C(C)=O)CC1 (stereo not drawn) | ? | 18.4µM* | -2.9% | . | -0.2%
CCOC(=O)c1ccc(NC(=O)CCCc2nc(-c3cc(OC)c(OC)c(OC)c3)no2)cc1 | 8.4% | -2.2% | -4.2% | . | -0.9%
Cc1nnc(SCC(=O)N2CC(=O)Nc3ccccc32)n1C | 1.5% | 9.7% | 4.8% | -2.5% | 0.0%
Cc1sc2nc(C3CC3)nc(SCC(=O)N3CC(=O)Nc4ccccc43)c2c1C | -3.4% | 7.31µM* | -19.9% | -6.4% | 1.5%
Cc1sc2nc(C3CC3)nc(SCC(=O)N3CCc4ccccc4C3)c2c1C | 7.8% | -24.1% | 0.5% | 12.6µM* | 9.5%
Cc1sc2nc(C3CC3)nc(SCC(=O)N3CCCc4ccccc43)c2c1C | -11.8% | . | . | ? | .
CCCc1nc(SCC(=O)N2CCc3ccccc3C2)c2ccccc2n1 | 6.4% | 23.1µM* | ? | 7.7% | 6.4%

Three entries already listed, ordered by length of the SMILES, largest number first.
SMILES | miR-21 reporter | Nrf2 inh | A549 tox | Mito fusion act | Nrf2 activator
CC(=O)c1ccc(S(=O)(=O)N2CCN(C(=O)c3ccc(-n4nc(C)c(Cl)c4C)cc3)CC2)cc1 | . | 25.9µM* | -0.4% | 7.1% | 0.0%
COc1ccccc1NC(=O)C1CCN(S(=O)(=O)c2ccc3c(c2)CC(C)N3C(C)=O)CC1 (stereo not drawn) | 0.2% | ? | 9.2% | 6.1% | -0.7%
CCc1ccc(C(=O)Cn2ncc(Cl)c(Cl)c2=O)cc1 | -5.2% | -14.4% | 3.3% | -6.1% | 10µM*

The list continues.
SMILES | miR-21 reporter | Nrf2 inh | A549 tox | Mito fusion act | Nrf2 activator
CC(C)CNc1nc(C#N)nc(Nc2ccccc2)n1 | . | ? | -14.9% | . | .
O=C(C1COc2cc(S(=O)(=O)Nc3ccc(Cl)cc3)ccc2O1)N1CCCC1 (stereo not drawn) | 16.4% | 25.9µM* | -4.9% | . | -0.1%
Cc1ccc(C2C3CSCC=C3C(C#N)=C(N)C2(C#N)C#N)cc1 (stereo not drawn) | 0.4% | 14.6µM* | ? | -1.8% | ?
COc1ccccc1OCCSc1nc2ccccc2n1CC(=O)N1CCOCC1 | -1.1% | 15.5% | 13.4% | . | 2.9%
CCOC(=O)N1CCC(N(C(=O)Nc2ccc(Cl)c(Cl)c2)C(C)CC)CC1 (stereo not drawn) | 5.3% | 14.6µM* | ? | 1.5% | 4.4%
CC(C)CCN(C(=O)Nc1ccc(Cl)c(Cl)c1)C1CCN(C(C)C)CC1 | -2.3% | . | -1.5% | . | 25.7%
COCCn1c(C)cc(C(=O)COC(=O)c2ccccc2Br)c1C | 8.2% | ? | -2.8% | -3.8% | -1.0%
COCCn1c(C)cc(C(=O)COC(=O)c2[nH]c(C)c(C(C)=O)c2C)c1C | . | 23.1µM* | -13.7% | -2.1% | 2.4%
N#CN1CCC(N[S+](=O)([O-])c2cccc(F)c2)CC1 | . | 12.0% | 1.3% | . | .
COc1ccc(C(=O)c2sc3nc4c(c(C(F)(F)F)c3c2N)CN(C(C)=O)CC4)cc1OC | 0.6% | ? | -19.4% | . | 4.4%
COc1ccc(CNC(=O)c2sc3nc4c(c(C(F)(F)F)c3c2N)CCC4)cc1OC | -10.1% | 23.1µM* | 0.3% | -20.4% | -0.7%
Nc1nc(CSC(=S)N2CCN(c3ccccc3)CC2)nc(Nc2ccc(F)cc2)n1 | 11.3% | 20.6µM* | -3.5% | ? | 4.3%
O=C(CSC1=NCCS1)c1ccc(Cl)cc1 | -5.7% | 13µM* | -19.4% | 1.6% | 2.5%
CC[n+]1ccc(/C=C2\Sc3ccccc3N2CCCS(=O)(=O)[O-])c2ccccc21 | -1.7% | -2.6% | -8.1% | -3.3% | 1.9%
C[n+]1ccccc1/C=C1\Sc2ccccc2N1CCO | 11.2% | 16.4µM* | -19.8% | 2.5% | 4.2%
Cc1ccc2c(c1)S/C(=C\c1cccc[n+]1C)N2CCO | 19.2% | 4.61µM* | -18.5% | 1.4% | 3.0%
CC(=O)N1c2ccc(C)cc2Sc2c1ccc1ccccc21 | . | -4.4% | 4.0% | . | 7.1%
CC(C)COc1ccc(C/C(N)=N/n2cnnc2)cc1 | 11.1% | 16.4µM* | -26.4% | 2.7% | 2.5%
CCc1c(CN2CCN(c3ccc(F)cc3)CC2)csc1C | 0.4% | 11.2% | 0.6% | . | 0.4%
COc1ccc(N2CCN(C(=S)Nc3ccc(C)cc3)CC2)cc1 | 0.0% | 0.0% | -18.4% | -7.7% | -0.3%
COc1ccc(N2CCN(C(=S)Nc3cccc(C)c3C)CC2)cc1 | -0.4% | 25.9µM* | ? | -3.1% | 0.1%
Cc1ccc(/C=C/C(=O)c2ccccc2)cc1 | -13.9% | . | . | 1.0% | .
Cc1ccc(C)c(/C=C/C(=O)c2ccccc(=O)c2O)c1 | ? | 23.1µM* | ? | ? | ?
Cc1ccc(/C=C/C(=O)c2ccccc(=O)c2O)c(C)c1 | 17.6% | 20.6µM* | ? | ? | 28.1%
